Tested on: TNFα secretion from LPS stimulated white blood cells from human buffy coat
Test: TNFα secretion assay, LPS stimulation
Conditions: Prednisolone 0.5 μM, Fluoxetine μM r5-r13: 0,0.23,0.45,0.9,1.8,3.6,7.2,14,29

SMILES: CNCCC(Oc1ccc(C(F)(F)F)cc1)c1ccccc1 (stereo not shown) [Fluoxetine]
- percent inhibition of TNFα secretion: 64.1%

— patent publication US20090075951A1, “Methods and Reagents for the Treatment of Inflammatory Disorders” (CombinatoRx, Inc., priority 2003, published 2009)
